# Source: patent publication US12084479B2, “Modified antimicrobial peptide derived from an arginine-rich domain” (priority 2016, dated 2024)
# Test system: human red blood cells (hRBCs)
# Experiment: Hemolytic activity
# Type: cell-based
# Settings: 8.9 mg/L, 37° C., one hour
# Method: In the hemolysis assay, human RBCs were incubated with serially-diluted doses (0 to 460 mg/L) of D-HBcARD, L-HBcARD, or melittin, at 37° C. for one hour.
# The hemolytic activities of peptides were determined by hemolysis against human red blood cells (hRBCs). Human blood was obtained in EDTA-containing tube and was centrifuged at 450 g for 10 min. The pellet was washed three times with PBS buffer, and a solution of 10% hRBCs was prepared. hRBCs solution was mixed with serial dilutions of peptides in PBS buffer, and the reaction mixtures were incubated for 1 h at 37° C. After centrifugation at 450 g for 10 min, the percentage of hemolysis was determined by measuring the absorbance at the wavelength of 405 nm of the supernatant. Blank and 100% hemolysis were determined in PBS buffer and in the presence of 1% Triton X-100, respectively.
compound,measurement,value
"CC[C@H](C)[C@H](NC(=O)CN)C(=O)NCC(=O)N[C@@H](C)C(=O)N[C@H](C(=O)N[C@@H](CC(C)C)C(=O)N[C@@H](CCCCN)C(=O)N[C@H](C(=O)N[C@@H](CC(C)C)C(=O)N[C@H](C(=O)N[C@H](C(=O)NCC(=O)N[C@@H](CC(C)C)C(=O)N1CCC[C@H]1C(=O)N[C@@H](C)C(=O)N[C@@H](CC(C)C)C(=O)N[C@H](C(=O)N[C@@H](CO)C(=O)N[C@@H](Cc1c[nH]c2ccccc12)C(=O)N[C@H](C(=O)N[C@@H](CCCCN)C(=O)N[C@@H](CCCNC(=N)N)C(=O)N[C@@H](CCCCN)C(=O)N[C@@H](CCCNC(=N)N)C(=O)N[C@@H](CCC(N)=O)C(=O)N[C@@H](CCC(N)=O)C(N)=O)[C@@H](C)CC)[C@@H](C)CC)[C@@H](C)O)[C@@H](C)O)C(C)C)C(C)C [melittin, reference compound]",hemolysis (percentage of Triton X-100-induced hemolysis),100%
